ChEMBL document CHEMBL1141905, “3,4-disubstituted azetidinones as selective inhibitors of the cysteine protease cathepsin K. Exploring P3 elements for potency and selectivity” (Bioorg Med Chem Lett, 2005)

Sequences of proteins named here, by UniProt entry; tags and fusion partners are left off. A change or cut given only in a name is not applied to a line headed by its entry.
UniProt P07711: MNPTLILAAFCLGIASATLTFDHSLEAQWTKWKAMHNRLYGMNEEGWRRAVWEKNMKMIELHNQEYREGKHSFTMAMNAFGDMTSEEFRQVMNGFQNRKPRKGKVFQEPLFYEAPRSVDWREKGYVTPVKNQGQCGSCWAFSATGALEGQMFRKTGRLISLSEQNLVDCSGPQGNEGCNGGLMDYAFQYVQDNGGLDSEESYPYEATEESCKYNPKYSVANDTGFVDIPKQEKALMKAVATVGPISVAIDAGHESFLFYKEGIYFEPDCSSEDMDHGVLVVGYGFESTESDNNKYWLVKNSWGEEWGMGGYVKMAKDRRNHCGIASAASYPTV
UniProt P25774, whole entry, looked up: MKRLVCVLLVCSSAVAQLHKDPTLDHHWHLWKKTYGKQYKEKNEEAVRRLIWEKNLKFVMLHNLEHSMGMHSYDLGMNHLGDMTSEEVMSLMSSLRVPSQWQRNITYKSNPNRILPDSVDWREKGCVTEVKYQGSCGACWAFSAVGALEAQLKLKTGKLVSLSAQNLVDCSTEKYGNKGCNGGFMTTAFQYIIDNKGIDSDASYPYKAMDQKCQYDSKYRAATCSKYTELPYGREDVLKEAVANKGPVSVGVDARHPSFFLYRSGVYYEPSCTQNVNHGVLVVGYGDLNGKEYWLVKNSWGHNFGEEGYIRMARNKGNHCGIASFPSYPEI

Assays:
[1] = biological target: Procathepsin L (Homo sapiens) (UniProt P07711)
[2] = biological target: Cathepsin S (Homo sapiens) (UniProt P25774); experiment: Apparent inhibitory constant against human cathepsin S
[3] = biological target: T1, Cathepsin K (Oryctolagus cuniculus) (UniProt P43236)
T1 sequence (whole entry): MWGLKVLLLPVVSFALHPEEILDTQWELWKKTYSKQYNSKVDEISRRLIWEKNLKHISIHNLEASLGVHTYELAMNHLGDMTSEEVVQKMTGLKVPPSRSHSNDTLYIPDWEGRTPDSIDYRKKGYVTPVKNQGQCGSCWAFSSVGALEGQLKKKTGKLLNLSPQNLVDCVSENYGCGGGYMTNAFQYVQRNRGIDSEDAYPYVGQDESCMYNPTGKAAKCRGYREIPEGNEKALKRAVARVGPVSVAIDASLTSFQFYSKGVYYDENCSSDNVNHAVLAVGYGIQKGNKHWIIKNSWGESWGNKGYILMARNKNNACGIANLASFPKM

[4] = biological target: Cathepsin B (Homo sapiens) (UniProt P07858); experiment: Apparent inhibitory constant against human cathepsin B
[5] = biological target: Procathepsin L (Homo sapiens) (UniProt P07711); remark: listed apart in the source
[6] = biological target: T1, Cathepsin K (Oryctolagus cuniculus); experiment: Apparent inhibitory constant against rabbit cathepsin K

| Ki'' [1] [nM] | Ki'' [2] [nM] | Ki'' [3] [nM] | Ki'' [4] [nM] | Ki'' [5] [nM] | Ki'' [6] [nM] | SMILES |
| --- | --- | --- | --- | --- | --- | --- |
| 1100 | 51000 | 3.6 | 6000 | – | – | CN1CCN(c2nc(-c3ccc(C(=O)NC4(C(=O)N[C@@H]5C(=O)N[C@H]5Oc5ccccc5)CCCCC4)cc3)cs2)CC1 |
| – | 17000 | – | 340 | 2400 | 4.8 | CN1CCN(c2nc(-c3ccc(C(=O)NC4(C(=O)N[C@@H]5C(=O)N[C@@H]5Oc5ccccc5)CCCCC4)cc3)cs2)CC1 |
